Molecular target: Carbonic anhydrase 9 (Homo sapiens, UniProt Q16790)

NS(=O)(=O)c1nnc(-c2ccccc2Cl)s1 [5-(2-chlorophenyl)-1,3,4-thiadiazole-2-sulfonamide]
Ki: 1 nM
